Measured values published in BindingDB's records for US9963460.

Sequences of proteins named here, by UniProt entry; tags and fusion partners are left off.
UniProt P41143, whole entry: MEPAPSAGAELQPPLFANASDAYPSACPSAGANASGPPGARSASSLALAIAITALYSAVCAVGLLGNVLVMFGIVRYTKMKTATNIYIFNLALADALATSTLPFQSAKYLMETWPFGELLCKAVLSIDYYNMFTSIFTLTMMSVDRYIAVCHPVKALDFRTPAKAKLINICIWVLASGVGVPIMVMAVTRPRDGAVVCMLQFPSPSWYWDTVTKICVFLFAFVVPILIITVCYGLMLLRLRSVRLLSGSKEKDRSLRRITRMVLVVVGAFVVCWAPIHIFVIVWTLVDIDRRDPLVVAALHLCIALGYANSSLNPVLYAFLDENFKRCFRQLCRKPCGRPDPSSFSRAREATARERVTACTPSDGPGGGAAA
UniProt P35372, whole entry: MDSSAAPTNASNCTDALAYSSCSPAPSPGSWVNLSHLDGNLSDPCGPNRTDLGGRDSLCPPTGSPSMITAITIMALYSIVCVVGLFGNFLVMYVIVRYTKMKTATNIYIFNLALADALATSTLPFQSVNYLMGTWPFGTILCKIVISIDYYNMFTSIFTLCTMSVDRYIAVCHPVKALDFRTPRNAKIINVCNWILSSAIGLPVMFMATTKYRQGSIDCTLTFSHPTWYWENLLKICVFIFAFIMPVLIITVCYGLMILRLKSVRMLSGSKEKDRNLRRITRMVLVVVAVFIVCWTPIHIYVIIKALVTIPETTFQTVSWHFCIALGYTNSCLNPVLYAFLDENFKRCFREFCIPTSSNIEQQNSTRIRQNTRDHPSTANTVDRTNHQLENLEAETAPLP
UniProt P41145, whole entry: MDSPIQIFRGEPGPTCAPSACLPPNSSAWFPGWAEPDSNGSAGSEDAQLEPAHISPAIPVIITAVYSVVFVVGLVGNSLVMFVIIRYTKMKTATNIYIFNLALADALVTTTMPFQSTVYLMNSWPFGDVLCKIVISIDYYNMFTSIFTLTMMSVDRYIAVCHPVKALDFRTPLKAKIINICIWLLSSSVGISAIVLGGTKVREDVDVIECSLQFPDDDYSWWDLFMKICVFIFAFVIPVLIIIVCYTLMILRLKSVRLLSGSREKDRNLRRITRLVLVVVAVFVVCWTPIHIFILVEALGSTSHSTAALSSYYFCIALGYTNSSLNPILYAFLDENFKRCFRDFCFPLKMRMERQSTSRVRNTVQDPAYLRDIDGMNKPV

Experiments:
Assay in all cases: [35S] GTPgammaS binding test
[1] = target: Delta-type opioid receptor (Homo sapiens, UniProt P41143)
Description: (§1) In a [3SS] GTPγS binding test, the opioid receptor agonist activity of test compounds based on a GTP-GDP exchange reaction was evaluated. In the test, a cell membrane sample (75 μg/well) was seeded in a 96-well microplate, and test compounds at various concentrations, 30 μM guanosine-5′-diphosphate (GDP: Sigma-Aldrich Co.,

[2] = target: Mu-type opioid receptor (Homo sapiens, UniProt P35372)
Description: as §1

[3] = target: Kappa-type opioid receptor (Homo sapiens, UniProt P41145)
Description: as §1

CN(Cc1ccccc1)C(=O)C1=C[C@@]23CC[C@]1(O)[C@@H]1Oc4c(O)ccc5c4[C@@]12CCN(CC1CC1)[C@@H]3C5
EC50 [1]: 1.7 nM | EC50 [2]: 2.77 nM | EC50 [3]: 2.8 pM
